Several values for one entry are separate records, joined by “and”; a condition that tells them apart may be missing. Equal entries are not always repeated. Only a part is listed here, and it is no random draw.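 Treatment: one concentration, 48 hours, 96-well format. Scoring: percent growth, with anything below 10 considered active.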 Activity calls are given as the source filed them.
What follows are compounds tested on HT29 colon (assay: NCI-60 one-dose screen, 48 h (100 = growth as untreated, 0 = no growth, -100 = all killed)). Conditions: 10 µM.

Row | SMILES | growth
1 | NC(=NCCN/C(N)=N/[N+](=O)[O-])N[N+](=O)[O-] | inactive: 90.2%
2 | O=[N+]([O-])N(CCN(CC(Br)([N+](=O)[O-])[N+](=O)[O-])[N+](=O)[O-])CC(Br)([N+](=O)[O-])[N+](=O)[O-] | inactive: 97.4%
3 | CN(C)Nc1c([N+](=O)[O-])cc([N+](=O)[O-])cc1[N+](=O)[O-] | inactive: 95.7%
4 | O=[N+]([O-])OCCOc1ccc([N+](=O)[O-])cc1[N+](=O)[O-] | inactive: 96.7%
5 | N=C(N)N(N)[N+](=O)[O-] | inactive: 106%
6 | O=[N+]([O-])c1cc([N+](=O)[O-])c(C(F)(F)F)c([N+](=O)[O-])c1O | inactive: 108%
7 | CCOC(=O)CSc1c(N)c(C)nn1C.O=[N+]([O-])c1cc([N+](=O)[O-])c(O)c([N+](=O)[O-])c1 | inactive: 93.7%
8 | O=[N+]([O-])c1ccc(OP2(=O)COCCO2)cc1 (configuration not stated) | inactive: 101%
9 | CCN(C)CC.O=[N+]([O-])c1cc([N+](=O)[O-])c(O)c([N+](=O)[O-])c1 | inactive: 91.8%
10 | OCCSCCO | inactive: 107%
11 | CC(C)N1CCN(CCOC(=O)C(O)(c2ccccc2)c2ccccc2)CC1 | inactive: 97.9%
12 | O=[N+]([O-])c1ccc(Oc2c([N+](=O)[O-])cc([N+](=O)[O-])cc2[N+](=O)[O-])cc1 | inactive: 106%
13 | O=C(Cl)c1c([N+](=O)[O-])cc([N+](=O)[O-])cc1[N+](=O)[O-] | active: -51.6%
14 | O=[N+]([O-])c1cc([N+](=O)[O-])c(Nc2ccc(Cl)cc2)c([N+](=O)[O-])c1 | active: 2.84%
15 | CNc1ccccc1.O=[N+]([O-])c1cc([N+](=O)[O-])c(O)c([N+](=O)[O-])c1 | inactive: 110%
16 | CCOP(=O)(CC)OCC | inactive: 111%

Row | SMILES | growth
17 | O=[N+]([O-])c1cc([N+](=O)[O-])c(O)c([N+](=O)[O-])c1.c1ccnnc1 | inactive: 96.7%
18 | CCCOP(=S)(Cl)OCCC | inactive: 106%
19 | CN(C)CCS | inactive: 111% and inactive: 99.6%
20 | CCN(CC)CCS | inactive: 103%
21 | CN(CCCl)CCCCCCCl | inactive: 87.8%
22 | Cc1ccc(Nc2c([N+](=O)[O-])cc([N+](=O)[O-])cc2[N+](=O)[O-])cc1 | inactive: 73.3%
23 | CN1CCN(CCOC(=O)C(O)(c2ccccc2)c2ccccc2)CC1 | inactive: 104%
24 | NN/C(N)=N/[N+](=O)[O-] | inactive: 108%
25 | CP(=S)(Cl)N(CCCl)CCCl (configuration not stated) | inactive: 97.2%
26 | CC[N+](C)(CC)Cc1cc(Cc2ccccc2)ccc1OC(=O)N(C)C | inactive: 101%
27 | Clc1ccccc1SCCBr | inactive: 101%
28 | CP(=O)(OCCCCl)N(CCCl)CCCl (configuration not stated) | inactive: 109%
29 | O=[N+]([O-])c1cccc([N+](=O)[O-])c1O | inactive: 81%
30 | COC(=O)C(O)(c1ccccc1)c1ccccc1 | inactive: 112%
31 | Cc1c([N+](=O)[O-])c(C)c([N+](=O)[O-])c(Nc2c([N+](=O)[O-])c(C)c([N+](=O)[O-])c(C)c2[N+](=O)[O-])c1[N+](=O)[O-] | active: 2.01%

Each compound was assayed on SNB-75 CNS in the same assay as above. Conditions: 10 µM.

Row | SMILES | growth
32 | NC(=NCCN/C(N)=N/[N+](=O)[O-])N[N+](=O)[O-] | inactive: 86.5%
33 | O=[N+]([O-])N(CCN(CC(Br)([N+](=O)[O-])[N+](=O)[O-])[N+](=O)[O-])CC(Br)([N+](=O)[O-])[N+](=O)[O-] | inactive: 88.6%
34 | CN(C)Nc1c([N+](=O)[O-])cc([N+](=O)[O-])cc1[N+](=O)[O-] | inactive: 86.8%
35 | O=[N+]([O-])OCCOc1ccc([N+](=O)[O-])cc1[N+](=O)[O-] | inactive: 87.4%
36 | N=C(N)N(N)[N+](=O)[O-] | inactive: 86.5%
37 | O=[N+]([O-])c1cc([N+](=O)[O-])c(C(F)(F)F)c([N+](=O)[O-])c1O | inactive: 86.2%
38 | CCOC(=O)CSc1c(N)c(C)nn1C.O=[N+]([O-])c1cc([N+](=O)[O-])c(O)c([N+](=O)[O-])c1 | inactive: 68.5%
39 | O=[N+]([O-])c1ccc(OP2(=O)COCCO2)cc1 (configuration not stated) | inactive: 98.5%
40 | CCN(C)CC.O=[N+]([O-])c1cc([N+](=O)[O-])c(O)c([N+](=O)[O-])c1 | inactive: 86%
41 | OCCSCCO | inactive: 107%
42 | CC(C)N1CCN(CCOC(=O)C(O)(c2ccccc2)c2ccccc2)CC1 | inactive: 91.3%
43 | O=[N+]([O-])c1ccc(Oc2c([N+](=O)[O-])cc([N+](=O)[O-])cc2[N+](=O)[O-])cc1 | inactive: 104%
44 | O=C(Cl)c1c([N+](=O)[O-])cc([N+](=O)[O-])cc1[N+](=O)[O-] | inactive: 86.3%
45 | O=[N+]([O-])c1cc([N+](=O)[O-])c(Nc2ccc(Cl)cc2)c([N+](=O)[O-])c1 | inactive: 51.1%
46 | CNc1ccccc1.O=[N+]([O-])c1cc([N+](=O)[O-])c(O)c([N+](=O)[O-])c1 | inactive: 87.4%
47 | CCOP(=O)(CC)OCC | inactive: 80.5%

Row | SMILES | growth
48 | O=[N+]([O-])c1cc([N+](=O)[O-])c(O)c([N+](=O)[O-])c1.c1ccnnc1 | inactive: 83%
49 | CCCOP(=S)(Cl)OCCC | inactive: 85.2%
50 | CN(C)CCS | inactive: 104% and inactive: 105%
51 | CCN(CC)CCS | inactive: 86.6%
52 | CN(CCCl)CCCCCCCl | inactive: 90.6%
53 | Cc1ccc(Nc2c([N+](=O)[O-])cc([N+](=O)[O-])cc2[N+](=O)[O-])cc1 | inactive: 90.9%
54 | CN1CCN(CCOC(=O)C(O)(c2ccccc2)c2ccccc2)CC1 | inactive: 97.9%
55 | NN/C(N)=N/[N+](=O)[O-] | inactive: 51.4%
56 | CP(=S)(Cl)N(CCCl)CCCl (configuration not stated) | inactive: 75.7%
57 | CC[N+](C)(CC)Cc1cc(Cc2ccccc2)ccc1OC(=O)N(C)C | inactive: 92.6%
58 | Clc1ccccc1SCCBr | inactive: 90.8%
59 | CP(=O)(OCCCCl)N(CCCl)CCCl (configuration not stated) | inactive: 75.6%
60 | O=[N+]([O-])c1cccc([N+](=O)[O-])c1O | inactive: 88.4%
61 | COC(=O)C(O)(c1ccccc1)c1ccccc1 | inactive: 98.4%
62 | Cc1c([N+](=O)[O-])c(C)c([N+](=O)[O-])c(Nc2c([N+](=O)[O-])c(C)c([N+](=O)[O-])c(C)c2[N+](=O)[O-])c1[N+](=O)[O-] | inactive: 27.7%
